# Values of other authors in US20190192527A1, “COMPOSITIONS COMPRISING PIKFYVE INHIBITORS AND METHODS RELATED TO INHIBITION OF RANK SIGNALING” (AI Therapeutics, Inc., priority 2016, published 2019).
# System: adipocytes
# Settings: read-out: IC50, inhibition of basal and insulin-activated 2-deoxyglucose uptake; cited from earlier work
compound,measurement,value
"Nc1ccc(C(=O)Nc2cccc(-c3nc(N4CCOCC4)c4oc5ncccc5c4n3)c2)cn1 [YM-201636, 6-amino-N-(3-(4-morpholinopyrido[3′,2′: 4,5]furo[3,2-d]pyrimidin-2-yl)phenyl)nicotinamide]",IC50,54 nM
